This note sets out measurements from US5744340A, “Expression of human inducible nitric oxide synthase” (Schering Corporation, priority 1995, dated 1998).

This data set concerns N=C(N)NCCC[C@H](N)C(=O)O. Nature of the data set: cells, lysate or membranes named. Particulars: other: crude cell extract, E. coli expressed iNOS; 37.0 °C.

For orientation: Km means the concentration of substrate that gives half-maximal velocity. Consider human iNOS (Homo sapiens), for which the Km was determined as 8 µM.
